The list shows a part of the results, in another mix than the full data. Some results for these compounds are left out of this collection, so the calls shown say nothing about other tests. Activity calls are given as the source filed them. Cut-off read from the data, not from the text of the source: active = potentiation above about 50%; inconclusive = mostly about 30% to 49%; inactive = weaker than that.

By UniProt entry, the sequences of proteins in these tests, tags left out.
UniProt P14416, whole entry: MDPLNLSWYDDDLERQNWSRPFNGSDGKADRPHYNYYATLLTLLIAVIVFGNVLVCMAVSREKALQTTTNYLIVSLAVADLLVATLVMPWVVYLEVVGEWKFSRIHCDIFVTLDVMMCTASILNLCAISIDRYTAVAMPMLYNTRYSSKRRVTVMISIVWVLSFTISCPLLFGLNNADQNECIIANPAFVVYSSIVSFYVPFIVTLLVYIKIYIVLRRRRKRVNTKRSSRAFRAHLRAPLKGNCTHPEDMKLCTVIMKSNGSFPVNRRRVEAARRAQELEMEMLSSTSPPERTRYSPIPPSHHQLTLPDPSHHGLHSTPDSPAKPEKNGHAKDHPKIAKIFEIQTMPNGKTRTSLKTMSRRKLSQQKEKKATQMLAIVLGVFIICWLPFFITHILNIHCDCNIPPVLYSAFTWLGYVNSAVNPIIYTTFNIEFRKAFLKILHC

This assay addresses D(2) dopamine receptor (Homo sapiens) (UniProt P14416). The experiment in a line: Beta-Arrestin HTS for Positive Allosteric Modulators of the Human D2 Dopamine Receptor: Potentiators. The conditions noted are these: DiscoveRx D2 beta-arrestin cells, luminescence, 90 min; hits give high values; 100% = 57 uM dopamine signal. The text has this: There is great interest in identifying small molecule ligands for G-protein coupled receptors (GPCRs) as nearly 50% of all FDA-approved drugs target these important receptor proteins. […] Amongst the dopamine receptors (DARs), the D2 is arguably one of the most validated drug targets in neurology and psychiatry. For instance, all receptor-based antiparkinsonian drugs primarily work via stimulating the D2 DAR, whereas all FDA-approved antipsychotic agents are antagonists of this receptor. The D2 DAR is also therapeutically targeted in other disorders such as restless legs syndrome, tardive dyskinesia, Tourette's syndrome, and hyperprolactinemia.
To this end, a miniaturized qHTS screen was developed to be screened against the Molecular Libraries Small Molecule Repository (MLSMR). This assay seeks to identify potentiators against the D2 DAR.
NIH Molecular Libraries Probe Production Network [MLPCN]
NIH Chemical Genomics Center [NCGC]
PI Name: David Sibley, National Institutes of Neurological Disorders and Stroke
DiscoveRx D2 cells were thawed from frozen stock and seeded at 2,100 cells/ 3 uL/well media (DiscoveRx Plating Reagent 2) with MultiDrop Combi dispenser (Thermo Scientific, Logan, UT) onto white tissue culture treated 1536-well Aurora plates (Brooks Automation, Chelmsford, MA) and allowed to attach overnight at 37 deg C, 5% CO2. Next, 23 nL/well of compound solutions in DMSO were added with a pintool transfer (Kalypsis, San Diego, CA). As the positive control, 1 uL/well dopamine (EC100, 57 uM final concentration) diluted in buffer (HBSS + 10 mM HEPES + SMB + 0.1 %Tween-20) was dispensed to 1 column of each plate. EC20 (Dopamine at 50 nM final concentration) was dispensed to the rest of the plate except columns 1 &2 which were used as negative control (EC=0, buffer only), 1 uL/well as well. The cells were stimulated by compounds and dopamine for 90 minutes at 37 deg C, 5% CO2, after which 1.5 uL/well of DiscoveRx detection reagent was added with BioRAPTR FRD dispenser. The detection reagent was prepared by mixing of Galacton Star Substrate, Emerald II solution and PathHunter buffer (supplied by the assay kit) together at 1:5:19 proportion accordingly just prior to dispensing. The plates were incubated at ambient temperature for 1 hour and then the luminescent signal was read on ViewLux plate reader (PerkinElmer, Waltham, MA).
With `O=C(NCC1(N2CCCCC2)CCCCC1)c1cccc(Cl)c1`, the potentiation was inactive: -5.6%.
Consider `COc1cccc(C(=O)NCC2(N3CCCCC3)CCCCC2)c1`, for which the potentiation was inactive: -5.75%.
As to `COc1ccc(Cl)cc1C(=O)NCC1(N(C)C)CCCCC1`, the potentiation is inactive: -15.5%.
For `COc1cc(C(=O)NCC2(N(C)C)CCCCC2)c([N+](=O)[O-])cc1OC`, the potentiation was inactive: -15.3%.
Regarding `CN(C)C1(CNC(=O)c2ccc(Br)cc2)CCCCC1`, the potentiation is inactive: -25.6%.
With `CN(C)c1cccc(C(=O)NCC2(N(C)C)CCCCC2)c1`, the potentiation was inactive: -12.4%.
The result for `CC(C)Oc1ccc(C(=O)NCC2(N(C)C)CCCCC2)cc1` reads inactive: -9.31%; that for `O=C(OCCN1CCCC1)C(O)(c1ccccc1)c1ccccc1`, inactive: -8.09%; that for `COc1ccc(Br)c(C(=O)NCC2(N3CCCCC3)CCCCC2)c1`, inactive: -10.3%.
In the case of `C=C(C)C#CC(O)(C(=O)OC1CCN(C)CC1)c1ccccc1` (stereo unspecified), the potentiation was inactive: -15.7%.
The result for `O=C(OC1CN2CCC1CC2)C(CO)(c1ccccc1)c1ccccc1` (stereo unspecified) reads inactive: -12.4%; that for `Cc1ccc(C(=O)NCC2(N3CCCCC3)CCCCC2)cc1`, inactive: -11.4%; that for `CC(C)N1C(=O)CC2(CCN(CCOC(=O)C(O)(c3ccccc3)c3ccccc3)CC2)C1=O`, inactive: -1.82%.
Turning to `CCN(CC)CC(C)C(C)OC(=O)C(O)(c1ccccc1)c1ccccc1` (stereo unspecified), the potentiation was inactive: -4.85%.
On to `COc1cc(SC)ccc1C(=O)NCC1(N(C)C)CCCCC1`, for which the potentiation is inactive: -7.83%.
On to `CN1[C@@H]2CC[C@H]1CC(OC(=O)C(O)(c1ccccc1)c1ccccc1)C2` (stereo partly specified), for which the potentiation is inactive: -10%.
`O=C(NCC1(N2CCCCC2)CCCCC1)c1cc([N+](=O)[O-])ccc1Cl`: the potentiation is inactive: -0.515%.
For the compound `CCN1CCCC(OC(=O)C2(O)c3ccccc3C=Cc3ccccc32)C1` (stereo unspecified), the potentiation was inactive: -25.6%.
Take `Cc1cc(C(=O)NCC2(N3CCCCC3)CCCCC2)ccc1[N+](=O)[O-]`: the potentiation is inactive: 0.12%.
For `O=C(NCC1(N2CCCCC2)CCCCC1)c1cccc(Br)c1`, the potentiation is inactive: -8.71%.
The result for `COc1ccc(C(=O)NCC2(N(C)C)CCCCC2)cc1` reads inactive: -8%; that for `C=CCN1CCN(CCOC(=O)C(O)(c2ccccc2)c2ccccc2)CC1`, inactive: 26.7%; that for `O=C(NCC1(N2CCCCC2)CCCCC1)c1cc(F)c(F)cc1Cl`, inactive: -2.85%.
With `Cc1ccccc1C(=O)NCC1(N2CCCCC2)CCCCC1`, the potentiation is inactive: -1.72%.
For `CN(C)c1ccc(C(=O)NCC2(N(C)C)CCCCC2)cc1`, the potentiation was inactive: -11.3%.
As to `CN(C)C1CCCC1OC(=O)C(O)(c1ccccc1)c1ccccc1` (stereo unspecified), the potentiation was inactive: -36%.
